Experimental findings from ChEMBL document CHEMBL5241100, “Sulfonamide derivatives as potential anti-cancer agents and their SARs elucidation” (Eur J Med Chem, 2021) are described below.

The test system of this test is HCT-116. Kind of test: cells. Particulars: Homo sapiens, HCT-116, 48 h.

In general, IC50 refers to the concentration at which inhibition is half-maximal. `Nc1ccc(S(=O)(=O)Nc2ccsc2-c2nc(-c3ccccc3)no2)cc1` registered an IC50 of 6 µM.
